Experimental data from article PMC4835042 (Bioorganic & medicinal chemistry letters, 2015).

The chains behind the UniProt entries cited, without tags or fusion partners. Residues count along the entry.
UniProt Q14832, 23-879: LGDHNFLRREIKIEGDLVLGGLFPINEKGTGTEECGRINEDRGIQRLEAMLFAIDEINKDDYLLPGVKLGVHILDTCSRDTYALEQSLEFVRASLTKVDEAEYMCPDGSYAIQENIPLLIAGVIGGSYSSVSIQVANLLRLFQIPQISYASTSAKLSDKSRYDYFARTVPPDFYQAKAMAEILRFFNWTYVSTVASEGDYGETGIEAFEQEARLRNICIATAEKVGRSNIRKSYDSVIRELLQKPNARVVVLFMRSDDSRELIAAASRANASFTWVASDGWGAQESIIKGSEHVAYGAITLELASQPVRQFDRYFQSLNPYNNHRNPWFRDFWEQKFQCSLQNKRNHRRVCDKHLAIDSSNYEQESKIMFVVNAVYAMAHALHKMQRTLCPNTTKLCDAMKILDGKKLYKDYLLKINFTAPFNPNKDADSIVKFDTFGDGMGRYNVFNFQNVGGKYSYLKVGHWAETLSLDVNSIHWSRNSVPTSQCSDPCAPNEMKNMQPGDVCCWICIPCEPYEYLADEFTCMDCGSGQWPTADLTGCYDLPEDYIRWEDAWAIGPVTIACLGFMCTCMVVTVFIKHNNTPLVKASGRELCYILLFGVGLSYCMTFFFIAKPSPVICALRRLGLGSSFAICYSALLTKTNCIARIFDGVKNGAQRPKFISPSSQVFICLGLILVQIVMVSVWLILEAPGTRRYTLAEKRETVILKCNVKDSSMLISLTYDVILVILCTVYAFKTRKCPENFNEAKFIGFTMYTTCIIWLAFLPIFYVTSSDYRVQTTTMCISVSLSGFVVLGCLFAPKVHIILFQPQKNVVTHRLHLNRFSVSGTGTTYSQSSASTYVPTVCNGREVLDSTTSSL
UniProt P41594, 21-1212: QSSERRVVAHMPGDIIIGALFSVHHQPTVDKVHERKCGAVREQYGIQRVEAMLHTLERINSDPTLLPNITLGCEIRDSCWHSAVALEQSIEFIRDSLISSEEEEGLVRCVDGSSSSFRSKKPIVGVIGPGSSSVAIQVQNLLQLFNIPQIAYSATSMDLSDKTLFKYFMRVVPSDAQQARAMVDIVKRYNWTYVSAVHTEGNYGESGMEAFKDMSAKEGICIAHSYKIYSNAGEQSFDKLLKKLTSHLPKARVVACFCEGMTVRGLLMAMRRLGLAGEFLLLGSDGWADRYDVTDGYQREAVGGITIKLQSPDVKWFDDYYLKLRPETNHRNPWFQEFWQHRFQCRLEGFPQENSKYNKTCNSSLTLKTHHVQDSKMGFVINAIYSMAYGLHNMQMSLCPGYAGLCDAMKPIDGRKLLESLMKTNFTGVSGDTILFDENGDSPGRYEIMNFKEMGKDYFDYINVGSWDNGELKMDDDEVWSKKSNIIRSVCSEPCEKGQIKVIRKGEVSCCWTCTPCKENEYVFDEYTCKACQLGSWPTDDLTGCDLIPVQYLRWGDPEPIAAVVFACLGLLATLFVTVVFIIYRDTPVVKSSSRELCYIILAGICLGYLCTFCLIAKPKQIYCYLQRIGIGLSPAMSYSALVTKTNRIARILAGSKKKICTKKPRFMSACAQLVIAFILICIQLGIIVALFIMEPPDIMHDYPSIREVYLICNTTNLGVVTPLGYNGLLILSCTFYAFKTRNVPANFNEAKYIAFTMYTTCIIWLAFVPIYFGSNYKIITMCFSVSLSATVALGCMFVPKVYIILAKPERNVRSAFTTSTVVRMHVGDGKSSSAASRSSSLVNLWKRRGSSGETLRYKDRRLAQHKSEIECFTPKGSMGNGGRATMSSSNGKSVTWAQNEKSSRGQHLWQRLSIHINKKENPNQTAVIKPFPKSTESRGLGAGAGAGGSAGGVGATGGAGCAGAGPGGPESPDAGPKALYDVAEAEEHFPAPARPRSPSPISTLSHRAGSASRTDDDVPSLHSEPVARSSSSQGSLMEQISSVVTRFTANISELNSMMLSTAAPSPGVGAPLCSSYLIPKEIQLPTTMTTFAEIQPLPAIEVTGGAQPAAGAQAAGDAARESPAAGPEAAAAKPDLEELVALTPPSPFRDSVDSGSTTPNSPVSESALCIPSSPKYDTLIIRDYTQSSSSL

What was measured:
[1] = target: human mGlu3 (Homo sapiens, UniProt Q14832)
[2] = target: human mGlu5 (Homo sapiens, UniProt P41594); settings: human mGlu5 expressing cells
[3] = GSH/CN trapping studies

O=C1c2cc(COc3ccccc3)nn2CCN1c1ccc(F)cn1 [4k]
mGlu3/mGlu5 EC50 ratio [1]: 52 | glutamate CRC fold-shift (FS) [2]: 7.7 | GSH/CN trapping result [3]: benign profile
